{"sequences": {"note": "By UniProt entry, the sequences of proteins in these tests, tags left out. Where a name states a change or a piece, a line headed by the entry shows the natural chain unless it says otherwise.", "UniProt O15244": "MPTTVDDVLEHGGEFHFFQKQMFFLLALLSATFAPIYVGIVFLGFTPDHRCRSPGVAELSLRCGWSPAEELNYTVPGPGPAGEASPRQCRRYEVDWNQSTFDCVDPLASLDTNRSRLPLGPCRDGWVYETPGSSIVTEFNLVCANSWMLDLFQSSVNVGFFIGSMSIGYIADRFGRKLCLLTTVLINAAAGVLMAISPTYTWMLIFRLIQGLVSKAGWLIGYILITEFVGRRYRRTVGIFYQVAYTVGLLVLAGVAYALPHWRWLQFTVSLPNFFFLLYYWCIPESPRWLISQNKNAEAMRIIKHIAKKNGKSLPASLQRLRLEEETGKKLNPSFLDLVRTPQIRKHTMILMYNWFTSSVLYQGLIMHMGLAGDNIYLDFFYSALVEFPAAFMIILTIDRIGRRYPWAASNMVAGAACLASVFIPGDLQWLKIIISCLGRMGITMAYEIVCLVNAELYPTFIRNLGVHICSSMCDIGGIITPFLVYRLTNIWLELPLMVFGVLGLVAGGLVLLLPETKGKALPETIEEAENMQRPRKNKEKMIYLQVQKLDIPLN", "UniProt Q63089": "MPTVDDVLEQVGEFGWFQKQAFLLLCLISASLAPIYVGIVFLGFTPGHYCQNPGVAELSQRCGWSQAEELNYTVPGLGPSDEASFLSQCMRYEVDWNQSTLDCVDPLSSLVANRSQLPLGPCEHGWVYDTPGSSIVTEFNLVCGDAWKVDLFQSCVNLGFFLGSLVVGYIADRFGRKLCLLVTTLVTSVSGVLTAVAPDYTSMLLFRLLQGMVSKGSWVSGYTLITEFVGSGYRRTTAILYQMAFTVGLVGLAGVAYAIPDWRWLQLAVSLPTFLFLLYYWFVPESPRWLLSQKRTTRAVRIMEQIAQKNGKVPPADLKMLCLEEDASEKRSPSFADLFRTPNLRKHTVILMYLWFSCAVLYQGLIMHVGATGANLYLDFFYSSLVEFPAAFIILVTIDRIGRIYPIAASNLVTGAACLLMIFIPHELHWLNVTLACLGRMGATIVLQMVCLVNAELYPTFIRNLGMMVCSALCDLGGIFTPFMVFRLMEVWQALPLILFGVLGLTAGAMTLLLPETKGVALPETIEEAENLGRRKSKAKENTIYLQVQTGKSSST", "UniProt O15245": "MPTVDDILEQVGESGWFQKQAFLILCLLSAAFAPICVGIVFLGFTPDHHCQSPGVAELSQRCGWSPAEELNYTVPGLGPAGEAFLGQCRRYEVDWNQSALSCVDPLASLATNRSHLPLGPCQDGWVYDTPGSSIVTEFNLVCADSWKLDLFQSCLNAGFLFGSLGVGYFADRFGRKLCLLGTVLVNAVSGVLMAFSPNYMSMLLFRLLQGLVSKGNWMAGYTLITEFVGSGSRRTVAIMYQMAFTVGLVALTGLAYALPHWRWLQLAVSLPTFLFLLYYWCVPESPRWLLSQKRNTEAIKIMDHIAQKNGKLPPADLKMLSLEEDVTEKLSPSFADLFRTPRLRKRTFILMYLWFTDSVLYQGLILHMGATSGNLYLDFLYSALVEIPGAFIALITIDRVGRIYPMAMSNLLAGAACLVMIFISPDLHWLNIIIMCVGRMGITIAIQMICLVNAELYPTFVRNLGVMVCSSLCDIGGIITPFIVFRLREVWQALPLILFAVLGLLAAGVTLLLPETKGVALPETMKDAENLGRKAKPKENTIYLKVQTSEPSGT", "UniProt Q9R0W2": "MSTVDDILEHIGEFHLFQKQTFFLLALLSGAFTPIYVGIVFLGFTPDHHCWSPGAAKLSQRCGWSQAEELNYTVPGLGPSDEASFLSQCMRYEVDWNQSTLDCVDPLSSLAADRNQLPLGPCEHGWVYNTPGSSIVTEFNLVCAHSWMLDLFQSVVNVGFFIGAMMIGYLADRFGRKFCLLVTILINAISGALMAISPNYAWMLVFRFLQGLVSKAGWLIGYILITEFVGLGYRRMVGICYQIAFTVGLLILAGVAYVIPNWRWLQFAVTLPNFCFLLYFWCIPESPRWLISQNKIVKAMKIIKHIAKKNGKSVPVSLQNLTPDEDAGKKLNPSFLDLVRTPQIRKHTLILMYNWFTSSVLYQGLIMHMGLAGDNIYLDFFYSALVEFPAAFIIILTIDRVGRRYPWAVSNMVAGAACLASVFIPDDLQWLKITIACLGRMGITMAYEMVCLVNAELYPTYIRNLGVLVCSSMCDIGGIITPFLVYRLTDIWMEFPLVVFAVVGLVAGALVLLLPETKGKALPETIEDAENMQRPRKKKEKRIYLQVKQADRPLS"}, "source": "paper PMC9127186", "about": "“Molecular Basis Underlying Hepatobiliary and Renal Excretion of Phenolic Acids of Salvia miltiorrhiza Roots (Danshen)” (Frontiers in Pharmacology, 2022)", "settings_in_all_cases": "positive substrate 20 μM, 10 min", "key": {"human OCT2": {"target": "human OCT2 (Homo sapiens, UniProt O15244)", "test": "Cellular transport assay, HEK-293 cells expressing human OCT2"}, "rat Oct1": {"target": "rat Oct1 (Rattus norvegicus, UniProt Q63089)", "test": "Cellular transport assay, HEK-293 cells expressing rat Oct1"}, "human OCT1": {"target": "human OCT1 (Homo sapiens, UniProt O15245)", "test": "Cellular transport assay, HEK-293 cells expressing human OCT1"}, "rat Oct2": {"target": "rat Oct2 (Rattus norvegicus, UniProt Q9R0W2)", "test": "Cellular transport assay, HEK-293 cells expressing rat Oct2"}}}
{"substance": "tetraethylammonium", "values": [{"measurement": "TransportTC/TransportMC ratio, positive substrate", "setting": "human OCT2", "result": "10.0 ± 2.9 (TEA)"}, {"measurement": "TransportTC/TransportMC ratio, positive substrate", "setting": "rat Oct1", "result": "8.16 ± 2.40 (TEA)"}, {"measurement": "TransportTC/TransportMC ratio, positive substrate", "setting": "human OCT1", "result": "4.58 ± 0.26 (TEA)"}, {"measurement": "TransportTC/TransportMC ratio, positive substrate", "setting": "rat Oct2", "result": "7.49 ± 1.62 (TEA)"}]}
